Test system: strain 17875 BabA^AD
Assay: ITC of strain 17875 BabA^AD titrated with bg glycans
Format: binding, Helicobacter pylori

Structure (SMILES)	fold increase in monovalent affinity compared to Le^b5 [fold]	fold lower monovalent affinity compared to BLe^b7 [fold]	fold lower monovalent affinity compared to Le^b5 [fold]
CC(=O)N[C@H]1[C@H](O[C@H]2[C@@H](O)[C@@H](CO)O[C@@H](O[C@H]3[C@H](O)[C@@H](O)C(O)O[C@@H]3CO)[C@@H]2O)O[C@H](CO)[C@@H](O[C@@H]2O[C@@H](C)[C@@H](O)[C@@H](O)[C@@H]2O)[C@@H]1O[C@@H]1O[C@H](CO)[C@H](O)[C@H](O[C@H]2O[C@H](CO)[C@H](O)[C@H](O)[C@H]2O)[C@H]1O[C@@H]1O[C@@H](C)[C@@H](O)[C@@H](O)[C@@H]1O (stereo partly drawn) [BLe^b7]	2	–	–
CC(=O)N[C@H]1[C@@H](O[C@H]2[C@@H](O)[C@@H](CO)O[C@@H](O[C@H]3[C@H](O)[C@@H](CO)O[C@@H](O[C@H]4[C@@H](O)[C@@H](CO)O[C@@H](O[C@H]5[C@H](O)[C@@H](O)C(O)O[C@@H]5CO)[C@@H]4O)[C@@H]3NC(C)=O)[C@@H]2O[C@@H]2O[C@@H](C)[C@@H](O)[C@@H](O)[C@@H]2O)O[C@H](CO)[C@H](O)[C@@H]1O (stereo partly drawn) [A6-1, A type 1 hexasaccharide]	–	~3.5	2
